Tested on: ABCA1 message in THP-1 cells
Assay: ABCA1 message by RT-PCR and gel densitometry (celecoxib example, COX-2 silencing)
Assay type: cell-based, human
Conditions: 50 μM, 18 h

Cc1ccc(-c2cc(C(F)(F)F)nn2-c2ccc(S(N)(=O)=O)cc2)cc1 [Celecoxib, celecoxib]
decrease in ABCA1 message vs. control: 65.1%±1.5

From US20090275529A1, “METHOD FOR IMPROVING CARDIOVASCULAR RISK PROFILE OF COX INHIBITORS” (priority 2008, published 2009)
